# Values quoted from earlier work, collected in patent US10350239B2, “Pharmaceutical composition for treating cancer comprising trypsinogen and/or chymotrypsinogen and an active agent selected from a selenium compound, a vanilloid compound and a cytoplasmic glycolysis reduction agent” (Propanc Pty Ltd, priority 2009, dated 2019).
# Conditions: background statement; cited from earlier work
substance,measurement,value
sodium selenite/selenate,toxic level (inorganic forms of selenium),about 1500 micrograms
